Laboratory results taken from patent US9079970B2, “Methods and compositions for specific modulation of MCL-1” (Dana Farber Cancer Institute, Inc., priority 2008, dated 2015).
“Also recorded” adds a separate entry of the source.

How the values were obtained:
[1] = tested on: recombinant BCL-wΔC; assay: Fluorescence polarization direct binding of FITC-SAHBs to BCL-wΔC; conditions: FPA
Experimental: Binding assays were performed as previously described (Pitter et al., Methods Enzymol 446, 387 (2008). Briefly, FITC-SAHB (50 nM) was added to serial dilutions of FPLC-purified recombinant protein in binding buffer (50 mM Tris, 100 mM NaCl, pH 8.0). For competition assays, serial dilutions of acetylated MCL-1 SAHBs were mixed with FITC-BAK SAHB (25 nM), followed by addition of MCL-1ΔNΔC (100 nM) diluted in binding buffer (50 mM Tris, 100 mM NaCl, pH 8.0). Multiwell plates were incubated in the dark at room temperature until equilibrium was reached and fluorescence polarization (mP units) was measured by microplate reader (SpectraMax, Molecular Devices). For direct binding experiments, dissociation constants (KD) were calculated by nonlinear regression analysis of dose-response curves using Prism software (Graphpad). For competition experiments, Ki values were determined by nonlinear regression analysis of dose-response curves using a one-site competition model.
Compounds that bound MCL-1 with high affinity were analyzed for MCL-1 selectivity by measuring SAHB affinities for recombinant BCL-XLΔC, BCL-WΔC and BFL-1/A1ΔC (FIG. 8B). […] The purified proteins were incubated with FITC-SAHBs, and binding affinities were analyzed by fluorescence polarization assay as described above. […]

[2] = tested on: Jurkat cells; assay: Live confocal microscopy of cellular uptake and localization; assay type: cell-based; conditions: FITC-SAHB
Experimental: In addition to FACS-based analysis, live confocal microscopy was used to visualize cellular uptake and intracellular localization of MCL-1 targeting SAHBs. For live confocal microscopy, Jurkat cells were incubated with FITC-SAHB and live cell organelle markers (e.g., dextran to label pinosomes, Mitotracker to label mitochondria). At defined time points (e.g., 4, 8, 12, and 24 hours), cells were washed twice with PBS, resuspended in PBS, wet mounted and imaged by confocal microscopy. […] Cell permeability and intracellular targeting can also be optimized through site-directed mutagenesis; for example, converting negatively charged residues to neutral or positively charged residues (e.g. SEQ ID NO: 39) can enhance cellular uptake as was previously reported (Bernal et al JACS, 2007).

[3] = tested on: wild-type mouse liver mitochondria (BAK-mediated cytochrome c release); assay: Cytochrome c release assay, wild-type mouse liver mitochondria; assay type: biochemical
Experimental: (§1) Mouse liver mitochondria (0.5 mg/mL) were isolated and cytochrome c release assays performed according to established methods (Pitter et al., Methods Enzymol 446, 387 (2008). Briefly, isolated mitochondria were incubated at 37° C. for 40 minutes in the presence of a serial dilution of MCL-1 SAHBs, singly or in combination with BID BH3 peptide. The pellet and supernatant fractions were isolated by centifugation, and cytochrome c was quantitated using a colorimetric ELISA assay (R&D Systems). Percent cytochrome c released into the supernatant (% cytocsup) from releasable mitochondrial pools was calculated according to the following equation: % cytoc=[(cytocsup-cytocbackgr)/(cytoctotal-cytocbackgr)]*100, where background release represents cytochrome c detected in the supernatant of vehicle-treated (1% DMSO) samples and total release represents cytochrome c measured in 1% Triton-X 100 treated samples.
(§2) Three in vitro assays were used to verify the capacity of selective MCL-1-targeting SAHBs to sensitize mitochondrial apoptosis. […] FP (mP units) was measured at equilibrium by microplate reader (e.g., Spectramax) and Ki values calculated by nonlinear regression analysis of dose-response curves using Prism software (Graphpad). […] The relative amount of cytochrome c released into the supernatant was quantified by ELISA assay per the manufacturer's protocol (Roche®). […]

[4] = tested on: Bak−/− mitochondria; assay: Cytochrome c release assay, Bak−/− mitochondria; assay type: biochemical, mouse; conditions: with BID BH3
Experimental: as §1, §2

[5] = tested on: Jurkat T-cell leukemia cells; assay: Cell viability by MTT assay, Jurkat; assay type: cell-based; conditions: MTT at 24 hours
Experimental: (§3) For viability testing, OPM2 and Jurkat cells (4×10^4) were treated with the indicated agents in Opti-MEM media at 37° C. in a final volume of 100 μL. Cell viability was measured at 24 hours by MTT assay, for which cells were incubated with 20 μL thiazolyl blue tetrazolium bromide (5 mg/mL in DPBS) at 37° C. for 4 hours, the precipitate solubilized with 0.1 N HCl isopropanol (100 μL), and absorbance measured at 570 nm and 650 nm.

[6] = tested on: OPM2 multiple myeloma cells; assay: Cell viability by MTT assay, OPM2; assay type: cell-based; conditions: MTT at 24 hours
Experimental: as §3, with “OPM2 multiple myeloma cells and Jurkat T-cell leukemia were passaged and maintained in RPMI 1640 medium (Invitrogen) supplemented with 10% fetal bovine serum, 100 U/mL penicillin, 100 μg/mL streptomycin, 2 mM L-glutamine, 50 mM HEPES and 50 μM β-mercaptoethanol. For” for “For”

[7] = tested on: caspase 3/7 in Jurkat cells; assay: Caspase 3/7 activation assay, Jurkat; assay type: cell-based; conditions: combined with low dose TRAIL and FasL, 4 hours
Experimental: (§4) OPM2 and Jurkat cells (2×10^4 cells) were treated with the indicated agents in Opti-MEM media at 37° C. in a final volume of 50 Caspase 3/7 activation was measured at 4 hours using the ApoONE Caspase 3/7 kit according to the manufacturer's instructions (Promega). For synergy studies with TRAIL and FASL, cells were treated simultaneously with MCL-1 SAHB and the death receptor ligands.

[8] = tested on: caspase 3/7 in OPM2 cells; assay: Caspase 3/7 activation assay, OPM2; assay type: cell-based; conditions: 4 hours
Experimental: as §4

[9] = Circular dichroism, percent α-helicity; assay type: physicochemical
Experimental: To evaluate secondary structure improvements of hydrocarbon-stapled peptides, circular dichroism (CD) spectra were recorded and analyzed on an Aviv Biomedical spectrometer (model 410), as has been previously reported (Walensky et al Science, 2004; Bird et al. Methods in Enzymology, 2008). […] The α-helicity of MCL-1 targeting SAHBs were compared to their unmodified counterparts by CD. A total of five scans from 190-260 nm in 0.5 nm increments with 0.5 sec averaging time were collectively averaged to obtain each spectrum using a 1 mm path length cell. The target peptide concentration for CD studies was 25-50 μM in 50 mM potassium phosphate (pH 7.5) or Milli-Q deionized water, and exact concentrations were confirmed by quantitative amino acid analysis of two CD sample dilutions. The CD spectra were initially plotted as wavelength versus millidegree. Once the precise peptide concentration was confirmed, the mean residue ellipticity [θ], in units of degree·cm^2·dmol^−1·residue^−1, was derived from the equation, [θ]=millidegree/molar concentration/number of amino acid residues. After conversion to mean residue ellipticity, percent α-helicity was calculated using the equation, % helicity=100×[θ]222/^max[θ]222, where ^max[θ]222=−40,000×[1−(2.5/number of amino acid residues). […]

Row | SMILES | BCL-w binding [1] | cellular uptake and intracellular localization [2] | cytochrome c release by SAHB alone ([3]; wild-type mitochondria, absence of BID BH3) | sensitization of BID BH3-induced cytochrome c release ([3]; wild-type mouse liver mitochondria, with BID BH3) | cytochrome c release from Bak−/− mitochondria [4] | Jurkat cell viability, single agent [5] | sensitization of Jurkat cells to FasL ([5]; combined with low dose FasL) | sensitization of Jurkat cells to TRAIL ([5]; combined with low dose TRAIL) | OPM2 cell viability, single agent [6] | sensitization of OPM2 cells to FasL ([6]; combined with low dose FasL) | sensitization of OPM2 cells to TRAIL ([6]; combined with low dose TRAIL) | caspase 3/7 activation in Jurkat cells [7] | caspase 3/7 activation in OPM2 cells with FasL ([8]; combined with low dose FasL) | caspase 3/7 activation in OPM2 cells with TRAIL ([8]; combined with low dose TRAIL) | percent α-helical content [9] [%]
1 | CC(C)C[C@H](NC(=O)[C@H](C)NC(=O)[C@@H](N)CCCCN)C(=O)N[C@@H](CCC(=O)O)C(=O)N[C@H](C(=O)N[C@@H](CC(C)C)C(=O)N[C@@H](CCCNC(=N)N)C(=O)N[C@@]1(C)CCCC=CCCC[C@@](C)(C(=O)N[C@H](C(=O)N[C@@H](CCC(N)=O)C(=O)N[C@@H](CCCNC(=N)N)C(=O)N[C@@H](CC(N)=O)C(=O)N[C@@H](Cc2c[nH]cn2)C(=O)N[C@@H](CCC(=O)O)C(=O)N[C@H](C(=O)N[C@@H](C)C(=O)N[C@@H](Cc2ccccc2)C(N)=O)[C@@H](C)O)C(C)C)NC(=O)[C@H](CC(=O)O)NC(=O)CNC(=O)[C@H](C(C)C)NC1=O)[C@@H](C)O [MCL-1 SAHB] | did not engage | striking fluorescence of pinosomes at early time points and subsequent colocalization with Mitotracker | – | – | – | – | – | – | – | – | – | – | – | – | –
2 | CC(C)C[C@H](NC(=O)[C@H](C)NC(=O)[C@@H](N)CCCCN)C(=O)N[C@@H](CCC(=O)O)C(=O)N[C@H](C(=O)N[C@@H](CC(C)C)C(=O)N[C@@H](CCCNC(=N)N)C(=O)N[C@@H](CCCNC(=N)N)C(=O)N[C@H](C(=O)NCC(=O)N[C@@H](CC(=O)O)C(=O)NCC(=O)N[C@H](C(=O)N[C@@]1(C)CCC/C=C\CCC[C@@](C)(C(=O)N[C@H](C(=O)N[C@@H](C)C(=O)N[C@@H](Cc2ccccc2)C(N)=O)[C@@H](C)O)NC(=O)[C@H](Cc2c[nH]cn2)NC(=O)[C@H](CC(N)=O)NC(=O)[C@H](CCCNC(=N)N)NC1=O)C(C)C)C(C)C)[C@@H](C)O [MCL-1 SAHBD] | – | – | no effect on the mitochondria in the absence of BID BH3 | dose-responsive enhancement of BAK-mediated cytochrome c release; also recorded: dose-responsively sensitizes BID BH3-induced and BAK-dependent mitochondrial apoptosis | no release was observed | no effect on cell viability even at 40 μM dosing | dose-responsively sensitized; also recorded: dose-responsive and caspase-dependent sensitization | dose-responsively sensitized; also recorded: dose-responsive and caspase-dependent sensitization | no effect on cell viability even at 40 μM dosing | no effect on OPM2 cells exposed to FasL | selectively sensitized OPM2 cells to TRAIL; also recorded: dose-responsive and caspase-dependent sensitization | dose-responsive activation of caspase 3/7 | but not FasL | dose-responsive activation of caspase 3/7 | 91
